Results published in US5756504A, “Tocolytic oxytocin receptor antagonists” (priority 1996, dated 1998).

The chains behind the UniProt entries cited, without tags or fusion partners.
UniProt P30560, whole entry: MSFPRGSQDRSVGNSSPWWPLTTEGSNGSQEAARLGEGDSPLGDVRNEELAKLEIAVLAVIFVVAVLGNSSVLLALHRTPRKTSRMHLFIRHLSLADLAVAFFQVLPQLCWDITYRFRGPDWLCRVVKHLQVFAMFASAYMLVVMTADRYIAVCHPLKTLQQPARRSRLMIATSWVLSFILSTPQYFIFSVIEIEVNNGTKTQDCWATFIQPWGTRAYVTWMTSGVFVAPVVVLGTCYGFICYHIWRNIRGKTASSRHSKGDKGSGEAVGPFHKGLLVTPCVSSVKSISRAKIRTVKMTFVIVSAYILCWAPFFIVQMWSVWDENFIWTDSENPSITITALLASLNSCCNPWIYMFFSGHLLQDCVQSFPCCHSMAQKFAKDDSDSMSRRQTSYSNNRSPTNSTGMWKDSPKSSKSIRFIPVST

Molecular target: T1, rat liver (AVP-VI site) (Rattus norvegicus, UniProt P30560)
T1 construct: from tissue; host or cells: liver of male rats, crude membranes
Experiment: [3H]AVP equilibrium saturation binding, rat liver
Details: read-out: Kd [^3 H]AVP rat liver; mean, n=3 saturation binding assays
Experimental: Ther., 256(1): 304-308 (1991)]. Uterine tissue was taken from nonpregnant adult Sprague-Dawley rats (Taconic Farms, Germantown, N.Y.) pretreated (18-24 h) with diethylstilbestrol propionate (DES; 300 μg/kg, i.p.). Uterine tissue (full thickness) was also taken with informed consent from nonlabor pregnant women undergoing cesarean section at 38 to 39 weeks gestation (Oregon Health Sciences Center, Portland, Oreg.). Liver and kidney medulla samples were taken from male rats and from human surgical and early postmortem donors (National Disease Research Interchange, Philadelphia Pa.; Analytical Biological Services, Wilmington, Del.).
Nonspecific binding was determined using 1 μM unlabeled OT or AVP in their respective assays. The binding reactions were initiated by the addition of tissue preparation and terminated by filtration using a Skatron cell harvester (model 7019, Skatron, Inc., Sterling, Va.). […] The final protein concentration for the various tissues in each assay ranged from 150 to 300 μg/ml [Lowry, P. H.; Rosebrough, N. J.; Farr, A. L.; Randall, R. J.; J. Biol. Chem., 193:265-275 (1951)].

[^3 H]arginine vasopressin [[^3 H]AVP]
Kd: 0.21 nM
